Laboratory results reported in ChEMBL document CHEMBL6078683, “Discovery of MT-7117 (Dersimelagon Phosphoric Acid): A Novel, Potent, Selective, and Nonpeptidic Orally Available Melanocortin 1 Receptor Agonist” (J Med Chem, 2024).

Columns and labels:
Mus musculus [1] = species on record: Mus musculus; details: dose 0.3-3 mg/kg, route po, time 4.0 weeks
Mus musculus [2] = species on record: Mus musculus; details: dose 0.3-3 mg/kg, route po, time 4.0 weeks; remark: listed apart in the source

Structure (SMILES): COC[C@H]1CN(C(=O)[C@]2(F)CN(C3CCCC3)C[C@H]2c2ccc(OC)cc2)C[C@@H]1c1ccc(C(F)(F)F)cc1N1CCC(C(=O)O)CC1
- inhibition (Mus musculus [1]): Active
- inhibition (Mus musculus [2]): Active

Calls of active or inactive are those of the source. The rule behind the calls is not given here.
